Activity calls are given as the source filed them. The rule behind the calls is not given here.
Columns and labels:
[1] = target: T1, Long-wave-sensitive opsin 1 (Homo sapiens) (UniProt P04000); experiment: Inverse agonist activity at human red cone opsin expressed in COS1 cells assessed as transducer activity at 20 uM by radioactive filter binding assay; assay type: cell-based; conditions: COS-1
T1 sequence (whole entry): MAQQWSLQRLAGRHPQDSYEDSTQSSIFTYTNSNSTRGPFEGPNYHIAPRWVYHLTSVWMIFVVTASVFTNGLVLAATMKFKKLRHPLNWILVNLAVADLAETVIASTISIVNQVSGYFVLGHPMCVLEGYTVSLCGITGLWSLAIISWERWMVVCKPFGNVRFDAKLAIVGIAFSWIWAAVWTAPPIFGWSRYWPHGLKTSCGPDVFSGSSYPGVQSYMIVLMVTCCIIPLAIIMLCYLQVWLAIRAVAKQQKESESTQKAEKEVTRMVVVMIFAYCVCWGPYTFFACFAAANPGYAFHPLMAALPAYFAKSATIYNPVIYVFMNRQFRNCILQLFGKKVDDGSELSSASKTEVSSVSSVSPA

[2] = target: T1, Long-wave-sensitive opsin 1 (Homo sapiens); experiment: Agonist activity at human red cone opsin expressed in COS1 cells assessed as activation of transducer at 20 uM by radioactive filter binding assay; assay type: cell-based; conditions: COS-1

| Compound | Activity [1] | Activity [2] |
| --- | --- | --- |
| CC1=C(/C=C/C(C)=C/C=C\C(C)=C\C=O)C(C)(C)CCC1 | Active |  |
| CC1=C(/C=C/C(C)=C/C=C/C(C)=C/C=O)C(C)(C)CCC1 |  | Active |
| CC1=C(/C=C/C(C)=C/C=C/C(C)=C\C=O)C(C)(C)CCC1 |  | Active |
